Assays:
Assay in all cases: AlphaScreen or HTRF; dCypher on the Alpha platform; biotinylated NCP (10 nM final) on streptavidin donor beads, GST-tagged Query titrated and held on glutathione acceptor beads; 20 mM HEPES pH 7.5, 250 mM NaCl, 0.01% BSA, 0.01% NP-40, 1 mM DTT; room temperature; relative EC50 (EC50^rel), not an equilibrium Kd
[1] = target: [H3K4me3 • H3K14ac] heterotypic nucleosome core particle (UniProt P04908)
[2] = target: H3K4me3K14ac nucleosome core particle (homotypic, dCypher) (UniProt P04908)
[3] = target: [H3K4me3K14ac • H3] heterotypic nucleosome core particle (UniProt P04908)

## BPTF GST-PHD-BD (from UniProt Q12830 2865-3036) (domain or fragment)
[1]
  EC50: 263 nM
[2]
  EC50: 7.3 nM
[3]
  EC50: 10.8 nM
